Test: Ocular delivery of dexamethasone after periocular injection
Details: single 5 mg peribulbar injection; assuming a vitreous volume of 4-5 ml

vitreous concentration: 0.10 to 0.13 µM
Compound: C[C@@H]1C[C@H]2[C@@H]3CCC4=CC(=O)C=C[C@]4(C)[C@@]3(F)[C@@H](O)C[C@]2(C)[C@@]1(O)C(=O)CO [Dexamethasone]

From US8614235B2, “CAI-based systems and methods for the localized treatment of ocular and other diseases” (RFE Pharma LLC, priority 2004, dated 2013)
